Laboratory results published in ChEMBL document CHEMBL1177640 (Bioorg Med Chem, 2010).

Assay: Permeability in buffer of pH 7.4 by PAMPA
Assay type: ADME
Details: read-out: permeability
Outline: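 Double-Sink PAMPA: DMSO stock diluted 200-fold into system solution buffer pH 7.4 in the donor plate, with acceptor sink buffer pH 7.4. Incubated 0.5 h at room temperature with stirring. Donor and acceptor concentrations measured by UV (230–500 nm), triplicates.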

- Papp: 19.9 ×10⁻⁶ cm/s
SMILES: NC(=O)N1c2ccccc2C=Cc2ccccc21 [CARBAMAZEPINE]
